Source: patent publication US20250339531A1, “DUX4 POLYPEPTIDES AND NUCLEIC ACIDS FOR TREATING INFLAMMATORY AND AUTOIMMUNE CONDITIONS” (Fred Hutchinson Cancer Center, priority 2021, published 2025)

Tested on: proteins that co-immunoprecipitated with DUX4-CTD constructs expressed in MB135 myoblasts
Assay: LC-MS of proteins co-immunoprecipitated with DUX4-CTD (Table 1) and western validation
Format: binding, human
Design: key to 3. + IFNg + Dox longCTD / 3. + Dox longCTD / 4. mL1dL2 + Dox + IFNG: peptide-spectrum matches (PSMs) per protein
Settings: for 3. + IFNg + Dox longCTD: bait longCTD, experiment 3, IFNg + Dox; for SUM of PSMS: sum over all samples
From the text: As an unbiased method to identify proteins that interact with the C-terminal region of DUX4, liquid chromatography mass spectroscopy (LC-MS) was used to identify proteins that co-immunoprecipitated with DUX4-CTD constructs expressed in MB135 myoblasts. In the first experiment, MB135iDUX4-CTD cells were used, either untreated, treated with doxycycline alone, or with both doxycycline and IFNG. In the second experiment, MB135iDUX4-CTD and MB135iDUX4mL1dL2 cells were used, both treated with doxycycline and IFNG, compared to these two cell lines untreated and combined as a control. Proteins with a minimum of 2 peptide spectrum matches (PSMs) in at least one sample that were identified in both experiments were assigned to one of ten categories (see Methods) to separate candidate interactors from other categories that might be co-purified because of obligate interactions (e.g., proteasome or ribosome) or might be less likely to be physiologically relevant (e.g., cytoskeletal proteins). Candidate interactors were then ranked based on the total PSMs for that protein across all samples.
Centrifugation at 2500 rcf at 4° C. for 5 min pelleted the nuclei, supernatant was discarded, and nuclei resuspended in 1 mL IP buffer pH 7.4 (25 mM Tris-HCl pH 7.5, 175 mM NaCl, 1 mM EDTA, 0.2% NP-40, 5% glycerol) and incubated for 1 hour at 4° C. with rotation then spun at 21000 rcf for 10 minutes at 4° C. to pellet insoluble debris. Protein concentration was determined using the Pierce BCA Protein Assay Kit (ThermoFisher, 23225). An equivalent amount of protein per sample was pre-cleared with Dynabeads Protein G (Invitrogen) bound to mouse IgG (Abcam #131368) for 1 hour at 4° C. with rotation. FLAG-tagged constructs were then immunoprecipitated with Dynabeads Protein G beads coupled to mouse anti-FLAG M2 mAb (Sigma F3165) for 3 hours at 4° C. with rotation. Beads were washed 3× with 1 mL IP buffer and eluted by adding 2× NuPage LDS Sample Buffer (Thermo Fisher, diluted from 4× with PBS) to the beads and heating for 10 minutes at 70° C.
For LC-MS, anti-FLAG immunoprecipitation was performed with beads cross-linked to the anti-FLAG antibody and the proteins competitively eluted with FLAG peptide. Eluted protein samples were electrophoresed into a NuPage 4-12% Bis-Tris gel, excised, and processed by the Fred Hutchinson Cancer Research Center Proteomics Core. Samples were reduced, alkylated, digested with trypsin, desalted, and run on the Orbitrap Eclipse Tribid Mass Spectrometer (Thermo Fisher). Proteomics data were analyzed using Proteome Discoverer 2.4 against a Uniprot human database that included common contaminants using Sequest HT and Percolator for scoring. […] Proteins that were identified in at least one sample from both independent experiments with at least 2 PSMs in one sample were assigned to one of ten categories: 1, candidates; 2, cytoskeletal associated; 3, cytoskeletal; 4, ribosome/translation associated; 5, proteasome associated; 6, membrane or extracellular; ER, golgi, or vesicle associated; 8, lipid metabolism; 9, chaperones; 10, nuclear import or nuclear membrane associated. The proteins in category 1 were further investigated for interactions with DUX4.

| Substance | 3. + IFNg + Dox longCTD | SUM of PSMS | 4. mL1dL2 + Dox + IFNG (LC-MS value per protein co-immunoprecipitated with DUX4-CTD construct mL1dL2 in MB135 myoblasts, + Dox + IFNG, kind of count not given) |
| --- | --- | --- | --- |
| P13010 | 5 | 6 | – |
| Q93009 | 6 | 15 | – |
| USP7 | – | – | 9 |
